The assay concerns the target Mu-type opioid receptor (Homo sapiens, UniProt P35372). Put plainly: Inhibition of mu opioid receptor.

Sequences of proteins named here, by UniProt entry; tags and fusion partners are left off.
UniProt P35372, whole entry: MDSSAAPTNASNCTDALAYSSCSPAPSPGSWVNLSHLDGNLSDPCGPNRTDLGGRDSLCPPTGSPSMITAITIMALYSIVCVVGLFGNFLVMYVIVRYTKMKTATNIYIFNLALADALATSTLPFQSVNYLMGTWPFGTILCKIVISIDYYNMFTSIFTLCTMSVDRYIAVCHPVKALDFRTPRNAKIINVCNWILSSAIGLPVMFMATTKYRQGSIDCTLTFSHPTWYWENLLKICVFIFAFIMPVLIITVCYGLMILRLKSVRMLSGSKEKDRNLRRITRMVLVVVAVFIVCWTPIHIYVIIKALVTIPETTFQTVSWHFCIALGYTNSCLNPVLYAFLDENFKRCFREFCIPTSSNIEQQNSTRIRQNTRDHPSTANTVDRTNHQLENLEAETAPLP

Molecules are shown by their SMILES.

Take `CN(C)C[C@H]1CCCC[C@]1(O)c1cccc(O)c1` [O-DESMETHYL TRAMADOL]: the IC50 came to 47 nM.

Source of the values: ChEMBL document CHEMBL1149431, “Derivatives of tramadol for increased duration of effect” (Bioorg Med Chem Lett, 2006).
